According to patent US9522903B2 (priority 2010, dated 2016):

System: murine model of acute chlorine inhalation injury (CILI)
Assay: Murine model of acute chlorine inhalation injury (CILI)
Conditions: 3 mg to 80 mg per dose, IP at 2 h and 6 h after Cl2 exposure

2-cyano-1-(1-hydroxy-2,2,5,5-tetramethylpyrrolidin-3-yl)-3-(pyridin-3-yl)guanidine
lung injury, dose-response: attenuated lung injury in a dose-dependent manner
